# Measurements published in BindingDB's records for doi:10.1007/bf00168557 (Boehringer Ingelheim Italia, 1995).
# Sequences of proteins named here, by UniProt entry; tags and fusion partners are left off.
# UniProt P31390, whole entry: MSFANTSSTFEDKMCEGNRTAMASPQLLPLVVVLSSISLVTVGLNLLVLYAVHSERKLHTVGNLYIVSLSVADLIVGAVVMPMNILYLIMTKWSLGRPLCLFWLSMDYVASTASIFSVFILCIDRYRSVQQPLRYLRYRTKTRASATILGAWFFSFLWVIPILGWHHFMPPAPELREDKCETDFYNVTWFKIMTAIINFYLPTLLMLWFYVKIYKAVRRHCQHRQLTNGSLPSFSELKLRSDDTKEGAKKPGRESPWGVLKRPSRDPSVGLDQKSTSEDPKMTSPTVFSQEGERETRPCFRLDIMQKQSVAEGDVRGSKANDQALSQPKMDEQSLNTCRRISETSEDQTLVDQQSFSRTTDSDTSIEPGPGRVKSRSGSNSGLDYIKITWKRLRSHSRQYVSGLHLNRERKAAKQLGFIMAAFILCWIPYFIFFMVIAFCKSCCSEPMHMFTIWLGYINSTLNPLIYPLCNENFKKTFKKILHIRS
# UniProt P19327, whole entry: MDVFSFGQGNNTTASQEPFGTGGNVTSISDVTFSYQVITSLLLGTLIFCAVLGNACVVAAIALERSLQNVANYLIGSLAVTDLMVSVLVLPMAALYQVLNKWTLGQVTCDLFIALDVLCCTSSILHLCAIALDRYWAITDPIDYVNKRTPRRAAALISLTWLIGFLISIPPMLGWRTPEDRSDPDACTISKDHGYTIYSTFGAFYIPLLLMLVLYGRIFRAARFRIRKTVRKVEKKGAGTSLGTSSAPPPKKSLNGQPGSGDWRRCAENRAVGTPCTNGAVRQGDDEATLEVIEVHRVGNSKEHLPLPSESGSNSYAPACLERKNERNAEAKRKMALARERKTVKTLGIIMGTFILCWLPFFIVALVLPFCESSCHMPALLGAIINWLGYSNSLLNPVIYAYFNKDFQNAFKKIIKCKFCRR
# UniProt P18090, whole entry: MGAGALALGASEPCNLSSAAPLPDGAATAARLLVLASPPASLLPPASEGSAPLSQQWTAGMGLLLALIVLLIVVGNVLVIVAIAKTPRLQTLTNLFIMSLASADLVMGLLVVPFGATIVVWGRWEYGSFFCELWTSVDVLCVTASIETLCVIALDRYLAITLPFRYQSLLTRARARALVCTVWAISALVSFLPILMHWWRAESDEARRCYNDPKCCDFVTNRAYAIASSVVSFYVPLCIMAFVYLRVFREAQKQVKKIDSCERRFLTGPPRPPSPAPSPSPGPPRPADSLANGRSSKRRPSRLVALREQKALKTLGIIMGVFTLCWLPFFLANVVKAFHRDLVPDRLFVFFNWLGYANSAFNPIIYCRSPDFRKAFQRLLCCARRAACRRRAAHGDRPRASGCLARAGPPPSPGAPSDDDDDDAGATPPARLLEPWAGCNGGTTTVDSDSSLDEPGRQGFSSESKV
# What was measured:
# [1] = target: Histamine H1 receptor (Rattus norvegicus, UniProt P31390)
# [2] = target: 5-hydroxytryptamine receptor 1A (Rattus norvegicus, UniProt P19327)
# [3] = target: Beta-1 adrenergic receptor (Rattus norvegicus, UniProt P18090)
compound,measurement,setting,value
"CC(CN1c2ccccc2Sc2ccccc21)N(C)C (stereo not drawn) [N,N,alpha-trimethyl-10H-phenothiazine-10-ethanamine]",Ki,[1],4 nM
NCCc1c[nH]c2ccc(O)cc12 [[3H]-5-HT],Ki,[2],4.2 nM
"C=CCc1ccccc1OC[C@@H](O)CNC(C)C [ALPRENOLOL,(-)]",Ki,[3],1.1 nM
